PubChem BioAssay AID588475 (Sanford-Burnham Center for Chemical Genomics, 2011)
The list shows a part of the results, in another mix than the full data. Some tests of the compounds listed are not included; inactive here does not mean inactive elsewhere. Calls of active or inactive are those of the source.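 How the source made its calls: active means inhibition of the ligand-induced calcium signal above about 50% at the single tested concentration (limit read from the data); inactive means the rest.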

Test: antagonists of CRF-BP/CRF-R2 complex, primary screen, cell-based, HEK293, calcium dye fluorescence, uHTS (AID 588475)
Details: CRF-induced calcium fluorescence, at 11.8 µM, stronger effect = higher value

| SMILES | inhibition |
| --- | --- |
| COc1ccc(C(=O)NCC2(N(C)C)CCCCC2)cc1 | inactive: 2.2% |
| O=C(NCC1(N2CCCCC2)CCCCC1)c1cccc(Br)c1 | inactive: 7.39% |
| Cc1cc(C(=O)NCC2(N3CCCCC3)CCCCC2)ccc1[N+](=O)[O-] | inactive: 0.51% |
| CCN1CCCC(OC(=O)C2(O)c3ccccc3C=Cc3ccccc32)C1 (stereo unspecified) | inactive: -27.8% |
| O=C(NCC1(N2CCCCC2)CCCCC1)c1cc(F)c(F)cc1Cl | inactive: -2.97% |
| C=CCN1CCN(CCOC(=O)C(O)(c2ccccc2)c2ccccc2)CC1 | inactive: 18% |
| CN(C)C1CCCC1OC(=O)C(O)(c1ccccc1)c1ccccc1 (stereo unspecified) | inactive: -10.5% |
| CN(C)c1ccc(C(=O)NCC2(N(C)C)CCCCC2)cc1 | inactive: 5.06% |
| Cc1ccccc1C(=O)NCC1(N2CCCCC2)CCCCC1 | inactive: 4.19% |
| Cc1ccc(C(=O)NCC2(N3CCCCC3)CCCCC2)cc1 | inactive: 12.5% |
| COc1cc(SC)ccc1C(=O)NCC1(N(C)C)CCCCC1 | inactive: 6.54% |
| CCN(CC)CC(C)C(C)OC(=O)C(O)(c1ccccc1)c1ccccc1 (stereo unspecified) | inactive: -5.18% |
| CC(C)N1C(=O)CC2(CCN(CCOC(=O)C(O)(c3ccccc3)c3ccccc3)CC2)C1=O | inactive: -6.68% |
| CN1[C@@H]2CC[C@H]1CC(OC(=O)C(O)(c1ccccc1)c1ccccc1)C2 (stereo partly specified) | inactive: -5% |
| O=C(NCC1(N2CCCCC2)CCCCC1)c1cc([N+](=O)[O-])ccc1Cl | inactive: -9.78% |
| O=C(OCCN1CCCC1)C(O)(c1ccccc1)c1ccccc1 | inactive: 3.33% |
| CC(C)Oc1ccc(C(=O)NCC2(N(C)C)CCCCC2)cc1 | inactive: -5.39% |
| CN(C)c1cccc(C(=O)NCC2(N(C)C)CCCCC2)c1 | inactive: 14.6% |
| C=C(C)C#CC(O)(C(=O)OC1CCN(C)CC1)c1ccccc1 (stereo unspecified) | inactive: -20.3% |
| COc1ccc(Br)c(C(=O)NCC2(N3CCCCC3)CCCCC2)c1 | inactive: -9.28% |
| O=C(OC1CN2CCC1CC2)C(CO)(c1ccccc1)c1ccccc1 (stereo unspecified) | inactive: 12.3% |
| O=C(NCC1(N2CCCCC2)CCCCC1)c1cccc(Cl)c1 | inactive: -9.64% |
| COc1ccc(Cl)cc1C(=O)NCC1(N(C)C)CCCCC1 | inactive: 12.9% |
| COc1cccc(C(=O)NCC2(N3CCCCC3)CCCCC2)c1 | inactive: 11.1% |
| COc1cc(C(=O)NCC2(N(C)C)CCCCC2)c([N+](=O)[O-])cc1OC | inactive: -4.83% |
| CN(C)C1(CNC(=O)c2ccc(Br)cc2)CCCCC1 | inactive: 1.13% |
